The text below walks through data of patent US20220265656A1, “COMBINATION THERAPIES WITH IRE1 SMALL MOLECULE INHIBITORS” (Cornell University, priority 2019, published 2022).

By UniProt entry, the sequences of proteins in these tests, tags left out. Residues count along the entry.
UniProt O75460, 19-977 limits assumed: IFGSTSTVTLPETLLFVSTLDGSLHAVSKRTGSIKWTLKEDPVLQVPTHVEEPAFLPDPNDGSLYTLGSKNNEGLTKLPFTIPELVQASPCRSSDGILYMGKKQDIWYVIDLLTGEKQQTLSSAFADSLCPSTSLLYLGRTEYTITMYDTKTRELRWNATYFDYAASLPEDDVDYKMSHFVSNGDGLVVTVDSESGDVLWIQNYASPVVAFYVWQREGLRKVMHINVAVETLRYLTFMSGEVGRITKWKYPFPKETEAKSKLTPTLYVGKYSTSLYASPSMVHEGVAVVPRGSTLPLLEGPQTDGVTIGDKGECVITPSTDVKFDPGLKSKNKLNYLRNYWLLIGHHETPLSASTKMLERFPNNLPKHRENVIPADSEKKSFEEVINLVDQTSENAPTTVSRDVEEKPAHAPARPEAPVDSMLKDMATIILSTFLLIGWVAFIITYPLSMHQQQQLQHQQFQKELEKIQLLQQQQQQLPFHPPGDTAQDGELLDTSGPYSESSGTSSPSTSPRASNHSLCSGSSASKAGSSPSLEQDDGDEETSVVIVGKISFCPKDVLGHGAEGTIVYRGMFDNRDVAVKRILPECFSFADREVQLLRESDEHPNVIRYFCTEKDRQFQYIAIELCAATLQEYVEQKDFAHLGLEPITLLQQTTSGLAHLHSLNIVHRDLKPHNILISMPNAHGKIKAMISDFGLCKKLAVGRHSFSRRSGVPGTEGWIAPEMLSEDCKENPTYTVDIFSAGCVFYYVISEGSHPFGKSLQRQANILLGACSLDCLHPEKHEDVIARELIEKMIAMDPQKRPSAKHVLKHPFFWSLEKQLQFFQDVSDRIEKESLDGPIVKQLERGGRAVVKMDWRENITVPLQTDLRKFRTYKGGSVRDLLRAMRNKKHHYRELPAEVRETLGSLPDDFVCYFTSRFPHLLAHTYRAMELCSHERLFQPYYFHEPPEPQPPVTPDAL

Structures can show the parent of a compound that is named as a salt. Where two headings read alike, the source gives them in different places. A value given as a limit tells only on which side of the number the result lay.

This assay has as its target IRE1a (Homo sapiens, UniProt O75460). Nature of the assay: In vitro FRET assay (IRE1a cleavage of XBP1 RNA probe). As to the method: In vitro FRET assay was performed to evaluate the ability of select compounds to inhibit IRE1, the results of which are summarized in Table 3. To perform the in vitro FRET assay, 1× complete assay buffer (CAB; […], 50 mM sodium citrate pH 7.15, 1 mM magnesium acetate, 0.02% tween 20) was used to dilute SignalChem IRE1a protein to a final concentration of 2 nM. Selected compounds were serially diluted with DMSO in a non-binding black 384-well plate for a total of 15 ul in each well, 2 ul of the serially diluted compound or DMSO control were then added to new wells containing 98 ul of 1×CAB, for a total volume of 100 ul, 10 ul of which were then transferred to wells of a new plate, 5 ul of the diluted IRE1a was then added to each well, 5 ul of a […] XBP1 RNA probe was then added to each well. Fluorescence was then read over 30 minutes in kinetic mode (485/515 nm).
Two RNA probes were used, XBP1 wildtype (SEQ ID NO: 2) which is able to be spliced by active IRE1a or XBP1 mutant (SEQ ID NO: 3) which is unable to be spliced. Each probe contained a 5′ 6-FAM modification and a 3′ IOWA Black FQ modification. […]

Setting [1] is: read-out: Mean IC50, 2 nM IRE1a, tested form: formate.
The mark [2] stands for this setting: read-out: Mean IC50, 2 nM IRE1a.

In general, IC50 refers to the concentration at which inhibition is half-maximal. Take `CCc1cc(-c2ccc(NS(=O)(=O)c3ccccc3Cl)nc2OC)cc2cnc(N[C@H]3CC[C@H](NC)CC3)nc12`: the IC50 under setting [1] was under 5 nM.
For the compound `CCc1cc(-c2ccc(NS(=O)(=O)c3ccccc3Cl)nc2C)cc2cnc(N[C@H]3CC[C@H](N(C)C)CC3)nc12` [Compound 91, 2-chloro-N-(5-(2-(((1r,4r)-4-(dimethylamino)cyclohexyl)amino)-8-ethylquinazolin-6-yl)-6-methylpyridin-2-yl)benzenesulfonamide], under setting [2], the IC50 is under 5 nM.
As to `CCc1cc(-c2ccc(NS(=O)(=O)c3ccccc3Cl)nc2C)cc2cnc(N[C@H]3CC[C@H](NC)CC3)nc12`, under setting [1], the IC50 is under 5 nM.
For the compound `COc1nc(NS(=O)(=O)c2ccccc2Cl)ccc1-c1cc(C(C)(F)F)c2nc(N[C@H]3CC[C@H](N(C)C)CC3)ncc2c1`, under setting [1], the IC50 is under 5 nM.
On the same count and under the same terms, under `CCc1cc(-c2ncc(NS(=O)(=O)c3ccccc3Cl)nc2OC)cc2cnc(N[C@H]3CC[C@H](N(C)C)CC3)nc12` stands under 5 nM; under `CCc1cc(-c2ccc(NS(=O)(=O)c3ccccc3Cl)nc2C)cc2cnc(N[C@H]3CC[C@H](N(C)CC)CC3)nc12`, under 5 nM; under `CCc1cc(-c2ccc(NS(=O)(=O)c3ccccc3C)nc2OC)cc2cnc(N[C@H]3CC[C@H](NC)CC3)nc12`, under 5 nM.
Same read-out and setting: to `CCc1cc(-c2cc(F)c(NS(=O)(=O)c3ccccc3Cl)nc2C)cc2cnc(N[C@H]3CC[C@H](N(C)C)CC3)nc12` belongs under 5 nM; to `COc1nc(NS(=O)(=O)c2ccccc2Cl)ccc1-c1cc2cnc(N[C@H]3CC[C@H](N(C)C)CC3)nc2cc1C`, under 5 nM.
On to `CCc1cc(-c2ccc(NS(=O)(=O)c3ccccc3Cl)c(F)c2)cc2cnc(N[C@H]3CC4C[C@H](N)CC4C3)nc12` (single isomer, unassigned) [82; Formic Acid Salt], for which the IC50 under setting [2] was under 5 nM.
